Assay: plasma protein binding using equilibrium dialysis
Assay type: in vitro ADME
Details: read-out: % Bound (plasma protein binding rate) (converted)
Source text: Targeting GRP75 with a Chlorpromazine Derivative Inhibits Endometrial Cancer Progression through GRP75–IP3R-Ca2+-AMPK axis
Qi Wang, Lijuan Li, Xiaoyan Gao, Chunxue Zhang, Chen Xu, Lingyi Song, Jian Li, Xiao Sun *, Fei Mao *, Yudong Wang *
Supplementary Experimental Methods
Plasma protein binding using equilibrium dialysis: A 96-well equilibrium dialysis device and HTD 96 a/b regenerated cellulose membrane strips with a molecular mass cutoff of 12–14 kDa were obtained from HTDialysis LLC (Gales Ferry, CT). The dialysis device was assembled following the manufacturer's instructions.
Bioinformatics Analysis: The Kaplan–Meier Plotter (https://kmplot.com), GEPIA (http://gepia.cancer-pku.cn/), and Human Protein Atlas (http://www.proteinatlas.org/) were all utilized to analyze GRP75 expression in the EC microarray tissues and to assess overall survival and the relationship of GRP75 expression with prognosis. […]
activity of the caspase 3/7 was then determined according to the manufacturer's […]
RNA sequencing (RNA-seq) and enrichment analysis: Ishikawa cells were each divided into two subgroups, shNC and shHSPA9, with three replicate dishes for each cell type in each subgroup. […] Gene expression levels were then calculated using RSEM (v1.3.1), and differential expression analysis was conducted using DESeq2 (v1.4.5) with a Q value ≤ 0.05. […]

Work on `CN1CCN(CCCCCN2c3cc(Cl)ccc3Sc3cccnc32)CC1` [JX57] yielded a fraction unbound of 0.0084.

From PMC11022737, “Targeting GRP75 with a Chlorpromazine Derivative Inhibits Endometrial Cancer Progression Through GRP75–IP3R‐Ca^2+‐AMPK Axis” (Advanced Science, 2024)
